Data taken from ChEMBL document CHEMBL1133656, “Structural determinants of efficacy for kappa opioid receptors in the orvinol series: 7,7-spiro analogues of buprenorphine” (2000).

By UniProt entry, the sequences of proteins in these tests, tags left out.
UniProt P41143, whole entry: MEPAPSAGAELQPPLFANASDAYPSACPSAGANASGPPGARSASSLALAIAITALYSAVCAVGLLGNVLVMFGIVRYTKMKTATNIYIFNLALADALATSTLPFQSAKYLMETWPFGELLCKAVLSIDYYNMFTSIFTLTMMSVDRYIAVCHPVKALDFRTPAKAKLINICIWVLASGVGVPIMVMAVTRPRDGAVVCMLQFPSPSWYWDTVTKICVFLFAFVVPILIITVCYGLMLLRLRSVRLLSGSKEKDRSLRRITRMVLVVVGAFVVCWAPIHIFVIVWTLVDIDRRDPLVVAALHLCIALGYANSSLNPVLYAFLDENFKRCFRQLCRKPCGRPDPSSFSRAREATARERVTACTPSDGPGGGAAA
UniProt P41145, whole entry: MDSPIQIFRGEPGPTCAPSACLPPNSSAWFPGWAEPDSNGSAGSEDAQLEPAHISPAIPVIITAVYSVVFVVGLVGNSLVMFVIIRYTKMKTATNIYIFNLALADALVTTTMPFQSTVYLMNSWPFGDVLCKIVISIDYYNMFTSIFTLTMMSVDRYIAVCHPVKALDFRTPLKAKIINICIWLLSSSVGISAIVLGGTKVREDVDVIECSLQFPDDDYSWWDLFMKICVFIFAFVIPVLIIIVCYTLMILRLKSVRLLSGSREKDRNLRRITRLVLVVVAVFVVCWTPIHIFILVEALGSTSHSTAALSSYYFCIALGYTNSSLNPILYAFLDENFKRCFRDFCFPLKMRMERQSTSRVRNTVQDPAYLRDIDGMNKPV
UniProt P35372, whole entry: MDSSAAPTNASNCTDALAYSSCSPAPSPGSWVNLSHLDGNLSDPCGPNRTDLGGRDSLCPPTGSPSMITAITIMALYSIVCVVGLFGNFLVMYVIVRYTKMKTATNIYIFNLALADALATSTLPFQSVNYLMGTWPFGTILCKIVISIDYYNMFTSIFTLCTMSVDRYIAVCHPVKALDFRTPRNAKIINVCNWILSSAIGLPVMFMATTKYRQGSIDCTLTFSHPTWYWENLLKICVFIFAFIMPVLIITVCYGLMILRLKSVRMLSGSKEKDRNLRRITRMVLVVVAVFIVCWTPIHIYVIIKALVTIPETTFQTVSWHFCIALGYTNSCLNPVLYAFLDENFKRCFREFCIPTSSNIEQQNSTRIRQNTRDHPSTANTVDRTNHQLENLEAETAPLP

Columns and labels:
[1] = molecular target: T1, Delta-type opioid receptor (Homo sapiens, UniProt P41143); assay: GTPgammaS binding in cloned human Opioid receptor delta 1 transfected into hamster ovary cells
[2] = molecular target: T2, Kappa-type opioid receptor (Homo sapiens, UniProt P41145); assay: GTPgammaS binding in cloned human Opioid receptor kappa 1 transfected into hamster ovary cells
[3] = molecular target: T2, Kappa-type opioid receptor; assay: Binding affinity to cloned human Opioid receptor kappa 1 transfected into hamster ovary cells using [3H]U-69593 as a radioligand.
[4] = molecular target: T1, Delta-type opioid receptor; assay: Binding affinity to cloned human Opioid receptor delta 1 transfected into hamster ovary cells using [3H]DPDPE as a radioligand.
Mu-type opioid receptor [5] = molecular target: T3, Mu-type opioid receptor (Homo sapiens, UniProt P35372); assay: GTPgammaS binding in cloned human Opioid receptor mu 1 transfected into hamster ovary cells
Mu-type opioid receptor [6] = molecular target: T3, Mu-type opioid receptor; assay: Binding affinity to cloned human Opioid receptor mu 1 transfected into hamster ovary cells using [3H]DAMGO as a radioligand.

| Compound | EC50 [1] [nM] | EC50 [2] [nM] | Ki [3] [nM] | Ki [4] [nM] | EC50 (Mu-type opioid receptor [5]) [nM] | Ki (Mu-type opioid receptor [6]) [nM] |
| --- | --- | --- | --- | --- | --- | --- |
| CO[C@]12C=CC3(CC14CCC(C)(C)[C@H]4O)C1Cc4ccc(O)c5c4C3(CCN1C)[C@@H]2O5 (stereo partly specified) | 18.6 | 1.6 | 1.28 | 8.47 |  |  |
| CO[C@]12C=CC3(CC14CCC(C)(C)[C@H]4O)C1Cc4ccc(O)c5c4C3(CCN1CC1CC1)[C@@H]2O5 (stereo partly specified) | 1.1 | 0.1 | 3.12 | 5.42 | 4.2 | 0.59 |
| CO[C@]12C=CC3(CC14CCC[C@H]4O)C1Cc4ccc(O)c5c4C3(CCN1CC1CC1)[C@@H]2O5 (stereo partly specified) | 0.3 | 0.04 | 1.04 | 0.69 | 2.8 | 0.32 |
